# Assay results from ChEMBL document CHEMBL1131628 (J Med Chem, 1998).
# Sequences of proteins named here, by UniProt entry; tags and fusion partners are left off.
# UniProt P25101, whole entry: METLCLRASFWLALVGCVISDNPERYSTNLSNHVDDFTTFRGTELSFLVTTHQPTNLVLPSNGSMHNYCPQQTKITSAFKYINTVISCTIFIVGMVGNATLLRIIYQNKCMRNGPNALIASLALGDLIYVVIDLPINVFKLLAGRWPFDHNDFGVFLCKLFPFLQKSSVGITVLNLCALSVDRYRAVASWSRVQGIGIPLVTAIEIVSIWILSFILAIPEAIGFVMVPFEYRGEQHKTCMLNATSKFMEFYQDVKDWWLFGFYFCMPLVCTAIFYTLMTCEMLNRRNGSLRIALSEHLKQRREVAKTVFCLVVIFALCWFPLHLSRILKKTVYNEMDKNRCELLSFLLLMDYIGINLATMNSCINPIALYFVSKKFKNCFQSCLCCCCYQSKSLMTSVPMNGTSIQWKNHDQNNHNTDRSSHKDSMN
# What was measured:
# Format in all cases: cell-based
# [1] = molecular target: T1, Endothelin receptor type B (Homo sapiens, UniProt P24530); assay: Tested for binding affinity for human Endothelin B receptor by measuring its ability to displace [125I]-ET-3 from chinese hamster ovary cells(CHO)
# T1 sequence (P24530 whole entry): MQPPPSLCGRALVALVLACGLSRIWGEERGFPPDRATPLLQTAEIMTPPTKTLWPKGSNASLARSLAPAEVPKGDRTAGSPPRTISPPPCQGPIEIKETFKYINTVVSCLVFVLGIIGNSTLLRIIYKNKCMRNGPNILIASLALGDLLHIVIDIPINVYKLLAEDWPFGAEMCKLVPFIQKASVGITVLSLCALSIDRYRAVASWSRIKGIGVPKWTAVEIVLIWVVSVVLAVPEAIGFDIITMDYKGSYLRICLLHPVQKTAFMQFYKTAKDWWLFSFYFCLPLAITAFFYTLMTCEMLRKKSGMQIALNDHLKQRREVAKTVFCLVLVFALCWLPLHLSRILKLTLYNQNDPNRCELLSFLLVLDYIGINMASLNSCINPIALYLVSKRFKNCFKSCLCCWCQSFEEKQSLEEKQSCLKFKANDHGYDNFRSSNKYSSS
# Procedure, shortened: (§1)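 Membranes from CHO cells stably transfected with human ETA or ETB, made in Hepes/sucrose with protease inhibitors by differential centrifugation. 0.02 mg membrane incubated 3 h at 25 °C with 0.1 nM [125I]ET-1 (ETA) or [125I]ET-3 (ETB) and test compound, 11 concentrations 10^-10 to 10^-5. Filtration read-out; nonspecific binding with 1 µM ET-1; IC50 from at least two duplicate determinations.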
# Endothelin-1 receptor [2] = molecular target: T2, Endothelin-1 receptor (Homo sapiens, UniProt P25101); assay: Tested for binding affinity for human Endothelin A receptor by measuring its ability to displace [125I]ET1 from chinese hamster ovary cells(CHO); procedure, shortened: as §1
# Endothelin-1 receptor [3] = molecular target: T2, Endothelin-1 receptor; assay: Tested for binding affinity for human Endothelin A receptor by measuring its ability to displace [125I]-ET-1 from chinese hamster ovary cells(CHO)
# [4] = molecular target: T1, Endothelin receptor type B; assay: Tested for binding affinity for human Endothelin B receptor by measuring its ability to displace [125I]ET-3 from chinese hamster ovary cells(CHO); procedure, shortened: as §1
smiles,measurement,setting,value
CCCCN(CCCC)C(=O)CN1C[C@H](c2cc(OC)c3c(c2)OCO3)[C@@H](C(=O)O)[C@@H]1CC(C)(C)CCC [ABT-546],Ki,[1],13 µM
same,IC50,Endothelin-1 receptor [2],0.00049 µM
same,Ki,Endothelin-1 receptor [3],0.00046 µM
same,IC50,[4],15.4 µM
